The source of these data is the supplement of paper PMC5998384.

Data set [1] has as its system HeLa Kyoto. Briefly: solubility in G1/S (NP-40 vs SDS abundance) (log2 ratio); higher = more soluble. The note with it: cell cycle stage: G1/S.
Data set [2] concerns HeLa Kyoto. Briefly: thermal stability score vs G1/S (z-score of summed log2 fold changes over temperatures); higher = more thermally stable than in G1/S.
Data set [3] relates to HeLa Kyoto. Briefly: melting temperature (median over replicates), in situ; higher = more thermally stable.
Data set [4] concerns HeLa Kyoto. Briefly: solubility change mitosis vs G1/S (difference of NP-40 vs SDS log2 ratios) (log2 ratio difference); higher = more soluble in mitosis.
The mark [5] stands for this setting: cell cycle stage: early G1 (4.5 h after nocodazole release).
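Throughout, for melting temperature (median over replicates), in situ: HeLa Kyoto cells synchronized by double thymidine or nocodazole block, proteins quantified by TMT10plex mass spectrometry, three independent biological replicates.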
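Throughout, for solubility change mitosis vs G1/S (difference of NP-40 vs SDS log2 ratios): synchronized HeLa Kyoto cells (double thymidine block for G1/S, nocodazole release for mitosis), protein amounts in NP-40 versus SDS lysates quantified by mass spectrometry, three biological replicates.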
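Throughout, for solubility in G1/S (NP-40 vs SDS abundance): HeLa Kyoto cells arrested at G1/S by double thymidine block, proteins quantified by TMT10plex mass spectrometry in mild NP-40 versus SDS extracts, three biological replicates.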
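Throughout, for thermal stability score vs G1/S (z-score of summed log2 fold changes over temperatures): synchronized HeLa Kyoto cells, proteins quantified by TMT10plex mass spectrometry, three biological replicates, mitosis taken 0.5 h after nocodazole release, G1/S directly after double thymidine block.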

As for CUL3 (sequence left out), the “solubility in G1/S (log2)” value with HeLa Kyoto [1] is -0.0642. The values for the thermal stability score with HeLa Kyoto [2] (setting [5]) and with HeLa Kyoto [2] (cell cycle stage: mitosis) were -0.45 and -1.27, respectively. Moreover, the melting temperature is 54.8 °C with HeLa Kyoto [3] (cell cycle stage: G1/S) and 53.8 °C in the data set with HeLa Kyoto [3] (cell cycle stage: mitosis). In addition, the “solubility change mitosis (log2)” value in the data set with HeLa Kyoto [4] was -0.0896.

“MAAAAAMAEQESARNGGRNRGGVQRVEGKLRASVEKGDYYEAHQMYRTLFFRYMSQSKHTEARELMYSGALLFFSHGQQNSAADLSMLVLESLEKAEVEVADELLENLAKVFSLMDPNSPERVTFVSRALKWSSGGSGKLGHPRLHQLLALTLWKEQNYCESRYHFLHSADGEGCANMLVEYSTSRGFRSEVDMFVAQAVLQFLCLKNKSSASVVFTTYTQKHPSIEDGPPFVEPLLNFIWFLLLAVDGGKLTVFTVLCEQYQPSLRRDPMYNEYLDRIGQLFFGVPPKQTSSYGGLLGNLLTSLMGSSEQEDGEESPSDGSPIELD [GET4]”: in the data set on HeLa Kyoto [1], the “solubility in G1/S (log2)” value is 0.123. Further, the thermal stability score is 0.593 in the data set on HeLa Kyoto [2] (setting [5]) and 1.06 in the data set with HeLa Kyoto [2] (cell cycle stage: mitosis). Moreover, the melting temperature in the data set on HeLa Kyoto [3] (cell cycle stage: G1/S) was determined as 50.7 °C; in the data set on HeLa Kyoto [3] (cell cycle stage: mitosis), 49.8 °C. For the same substance, in the data set on HeLa Kyoto [4], the “solubility change mitosis (log2)” value is -0.166.

For “MAAAEEEDGGPEGPNRERGGAGATFECNICLETAREAVVSVCGHLYCWPCLHQWLETRPERQECPVCKAGISREKVVPLYGRGSQKPQDPRLKTPPRPQGQRPAPESRGGFQPFGDTGGFHFSFGVGAFPFGFFTTVFNAHEPFRRGTGVDLGQGHPASSWQDSLFLFLAIFFFFWLLSI [RNF5]”, in the data set with HeLa Kyoto [1], the “solubility in G1/S (log2)” value turned out to be 0.229. The melting temperature was 52.9 °C in the data set on HeLa Kyoto [3] (cell cycle stage: G1/S) and 52 °C in the data set on HeLa Kyoto [3] (cell cycle stage: mitosis). Also, in the data set with HeLa Kyoto [4], the “solubility change mitosis (log2)” value was -0.128.

In the case of “MAAPLLHTRLPGDAAASSSAVKKLGASRTGISNMRALENDFFNSPPRKTVRFGGTVTEVLLKYKKGETNDFELLKNQLLDPDIKDDQIINWLLEFRSSIMYLTKDFEQLISIILRLPWLNRSQTVVEEYLAFLGNLVSAQTVFLRPCLSMIASHFVPPRVIIKEGDVDVSDSDDEDDNLPANFDTCHRALQIIARYVPSTPWFLMPILVEKFPFVRKSERTLECYVHNLLRISVYFPTLRHEILELIIEKLLKLDVNASRQGIEDAEETATQTCGGTDSTEGLFNMDEDEETEHETKAGPERLDQMVHPVAERLDILMSLVLSYMKDVCYVDGKVDNGKTKDLYRDLINIFDKLLLPTHASCHVQFFMFYLCSFKLGFAEAFLEHLWKKLQDPSNPAIIRQAAGNYIGSFLARAKFIPLITVKSCLDLLVNWLHIYLNNQDSGTKAFCDVALHGPFYSACQAVFYTFVFRHKQLLSGNLKEGLQYLQSLNFERIVMSQLNPLKICLPSVVNFFAAITNKYQLVFCYTIIERNNRQMLPVIRSTAGGDSVQICTNPLDTFFPFDPCVLKRSKKFIDPIYQVWEDMSAEELQEFKKPMKKDIVEDEDDDFLKGEVPQNDTVIGITPSSFDTHFRSPSSSVGSPPVLYMQPSPL [RRN3]”, in the data set with HeLa Kyoto [1], the “solubility in G1/S (log2)” value is -0.182. For the same substance, the thermal stability score in the data set with HeLa Kyoto [2] (setting [5]) is -1.36; in the data set with HeLa Kyoto [2] (cell cycle stage: mitosis), 1.91. Moreover, the melting temperature in the data set with HeLa Kyoto [3] (cell cycle stage: G1/S) came out at 51.5 °C; in the data set on HeLa Kyoto [3] (cell cycle stage: mitosis) it was 52 °C. For the same substance, the “solubility change mitosis (log2)” value with HeLa Kyoto [4] was 0.109.

On to “MAAQALALLREVARLEAPLEELRALHSVLQAVPLNELRQQAAELRLGPLFSLLNENHREKTTLCVSILERLLQAMEPVHVARNLRVDLQRGLIHPDDSVKILTLSQIGRIVENSDAVTEILNNAELLKQIVYCIGGENLSVAKAAIKSLSRISLTQAGLEALFESNLLDDLKSVMKTNDIVRYRVYELIIEISSVSPESLNYCTTSGLVTQLLRELTGEDVLVRATCIEMVTSLAYTHHGRQYLAQEGVIDQISNIIVGADSDPFSSFYLPGFVKFFGNLAVMDSPQQICERYPIFVEKVFEMIESQDPTMIGVAVDTVGILGSNVEGKQVLQKTGTRFERLLMRIGHQSKNAPVELKIRCLDAISSLLYLPPEQQTDDLLRMTESWFSSLSRDPLELFRGISSQPFPELHCAALKVFTAIANQPWAQKLMFNSPGFVEYVVDRSVEHDKASKDAKYELVKALANSKTIAEIFGNPNYLRLRTYLSEGPYYVKPVSTTAVEGAE [PSMD5]”, for which the “solubility in G1/S (log2)” value with HeLa Kyoto [1] amounted to 0.0767. The results for the thermal stability score in the data set with HeLa Kyoto [2] (setting [5]) and in the data set with HeLa Kyoto [2] (cell cycle stage: mitosis) were 0.755 and 1.31, respectively. Further, the melting temperature amounted to 52.3 °C in the data set on HeLa Kyoto [3] (cell cycle stage: G1/S) and 51.1 °C with HeLa Kyoto [3] (cell cycle stage: mitosis). The “solubility change mitosis (log2)” value in the data set with HeLa Kyoto [4] was -0.147.

Regarding “MAEASPHPGRYFCHCCSVEIVPRLPDYICPRCESGFIEELPEETRSTENGSAPSTAPTDQSRPPLEHVDQHLFTLPQGYGQFAFGIFDDSFEIPTFPPGAQADDGRDPESRRERDHPSRHRYGARQPRARLTTRRATGRHEGVPTLEGIIQQLVNGIITPATIPSLGPWGVLHSNPMDYAWGANGLDAIITQLLNQFENTGPPPADKEKIQALPTVPVTEEHVGSGLECPVCKDDYALGERVRQLPCNHLFHDGCIVPWLEQHDSCPVCRKSLTGQNTATNPPGLTGVSFSSSSSSSSSSSPSNENATSNS [RNF126]”, the thermal stability score with HeLa Kyoto [2] (setting [5]) was -1.11; in the data set on HeLa Kyoto [2] (cell cycle stage: mitosis), -0.316.

In the case of “MAKERCLKKSFQDSLEDIKKRMKEKRNKNLAEIGKRRSFIAAPCQIITNTSTLLKNYQDNNKMLVLALENEKSKVKEAQDIILQLRKECYYLTCQLYALKGKLTSQQTVEPAQNQEICSSGMDPNSDDSSRNLFVKDLPQIPLEETELPGQGESFQIEDQIPTIPQDTLGVDFDSGEAKSTDNVLPRTVSVRSSLKKHCNSICQFDSLDDFETSHLAGKSFEFERVGFLDPLVNMHIPENVQHNACQWSKDQVNLSPKLIQPGTFTKTKEDILESKSEQTKSKQRDTQERKREEKRKANRRKSKRMSKYKENKSENKKTVPQKKMHKSVSSNDAYNFNLEEGVHLTPFRQKVSNDSNREENNESEVSLCESSGSGDDSDDLYLPTCKYIQNPTSNSDRPVTRPLAKRALKYTDEKETEGSKPTKTPTTTPPETQQSPHLSLKDITNVSLYPVVKIRRLSLSPKKNKASPAVALPKRRCTASVNYKEPTLASKLRRGDPFTDLCFLNSPIFKQKKDLRRSKKRALEVSPAKEAIFILYYVREFVSRFPDCRKCKLETHICLR [SGOL1]”, the “solubility in G1/S (log2)” value in the data set with HeLa Kyoto [1] was -0.682. The “solubility change mitosis (log2)” value in the data set with HeLa Kyoto [4] came to 0.46.

With “MAMAMSDSGASRLRRQLESGGFEARLYVKQLSQQSDGDRDLQEHRQRIQALAEETAQNLKRNVYQNYRQFIETAREISYLESEMYQLSHLLTEQKSSLESIPLTLLPAAAAAGAAAASGGEEGVGGAGGRDHLRGQAGFFSTPGGASRDGSGPGEEGKQRTLTTLLEKVEGCRHLLETPGQYLVYNGDLVEYDADHMAQLQRVHGFLMNDCLLVATWLPQRRGMYRYNALYSLDGLAVVNVKDNPPMKDMFKLLMFPESRIFQAENAKIKREWLEVLEDTKRALSEKRRREQEEAAAPRGPPQVTSKATNPFEDDEEEEPAVPEVEEEKVDLSMEWIQELPEDLDVCIAQRDFEGAVDLLDKLNHYLEDKPSPPPVKELRAKVEERVRQLTEVLVFELSPDRSLRGGPKATRRAVSQLIRLGQCTKACELFLRNRAAAVHTAIRQLRIEGATLLYIHKLCHVFFTSLLETAREFEIDFAGTDSGCYSAFVVWARSAMGMFVDAFSKQVFDSKESLSTAAECVKVAKEHCQQLGDIGLDLTFIIHALLVKDIQGALHSYKEIIIEATKHRNSEEMWRRMNLMTPEALGKLKEEMKSCGVSNFEQYTGDDCWVNLSYTVVAFTKQTMGFLEEALKLYFPELHMVLLESLVEIILVAVQHVDYSLRCEQDPEKKAFIRQNASFLYETVLPVVEKRFEEGVGKPAKQLQDLRNASRLIRVNPESTTSVV [EXOC8]”, in the data set on HeLa Kyoto [1], the “solubility in G1/S (log2)” value turned out to be 0.00864. The thermal stability score in the data set with HeLa Kyoto [2] (setting [5]) came out at 0.41; in the data set on HeLa Kyoto [2] (cell cycle stage: mitosis), 0.98. Also, the values for the melting temperature in the data set on HeLa Kyoto [3] (cell cycle stage: G1/S) and in the data set with HeLa Kyoto [3] (cell cycle stage: mitosis) were 49.9 °C and 48.9 °C, respectively. In the data set with HeLa Kyoto [4], the “solubility change mitosis (log2)” value was -0.108.

Regarding “MAMESTATAAVAAELVSADKIEDVPAPSTSADKVESLDVDSEAKKLLGLGQKHLVMGDIPAAVNAFQEAASLLGKKYGETANECGEAFFFYGKSLLELARMENGVLGNALEGVHVEEEEGEKTEDESLVENNDNIDEEAREELREQVYDAMGEKEEAKKTEDKSLAKPETDKEQDSEMEKGGREDMDISKSAEEPQEKVDLTLDWLTETSEEAKGGAAPEGPNEAEVTSGKPEQEVPDAEEEKSVSGTDVQEECREKGGQEKQGEVIVSIEEKPKEVSEEQPVVTLEKQGTAVEVEAESLDPTVKPVDVGGDEPEEKVVTSENEAGKAVLEQLVGQEVPPAEESPEVTTEAAEASAVEAGSEVSEKPGQEAPVLPKDGAVNGPSVVGDQTPIEPQTSIERLTETKDGSGLEEKVRAKLVPSQEETKLSVEESEAAGDGVDTKVAQGATEKSPEDKVQIAANEETQEREEQMKEGEETEGSEEDDKENDKTEEMPNDSVLENKSLQENEEEEIGNLELAWDMLDLAKIIFKRQETKEAQLYAAQAHLKLGEVSVESENYVQAVEEFQSCLNLQEQYLEAHDRLLAETHYQLGLAYGYNSQYDEAVAQFSKSIEVIENRMAVLNEQVKEAEGSSAEYKKEIEELKELLPEIREKIEDAKESQRSGNVAELA[skipping about 120 residues] [NASP]”, in the data set on HeLa Kyoto [1], the “solubility in G1/S (log2)” value was determined as 0.232. The values for the thermal stability score with HeLa Kyoto [2] (setting [5]) and in the data set with HeLa Kyoto [2] (cell cycle stage: mitosis) were -1.08 and 1.21, respectively. The melting temperature was 51.3 °C with HeLa Kyoto [3] (cell cycle stage: G1/S) and 52.4 °C in the data set on HeLa Kyoto [3] (cell cycle stage: mitosis). In the data set with HeLa Kyoto [4], the “solubility change mitosis (log2)” value was -0.051.

For “MEEQPQMQDADEPADSGGEGRAGGPPQVAGAQAACSEDRMTLLLRLRAQTKQQLLEYKSMVDASEEKTPEQIMQEKQIEAKIEDLENEIEEVKVAFEIKKLALDRMRLSTALKKNLEKISRQSSVLMDNMKHLLELNKLIMKSQQESWDLEEKLLDIRKKRLQLKQASESKLLEIQTEKNKQKIDLDSMENSERIKIIRQNLQMEIKITTVIQHVFQNLILGSKVNWAEDPALKEIVLQLEKNVDMM [CENPH]”, in the data set with HeLa Kyoto [1], the “solubility in G1/S (log2)” value was -0.161. Also, the “solubility change mitosis (log2)” value with HeLa Kyoto [4] was 0.656.

For the substance “MSVLRPLDKLPGLNTATILLVGTEDALLQQLADSMLKEDCASELKVHLAKSLPLPSSVNRPRIDLIVFVVNLHSKYSLQNTEESLRHVDASFFLGKVCFLATGAGRESHCSIHRHTVVKLAHTYQSPLLYCDLEVEGFRATMAQRLVRVLQICAGHVPGVSALNLLSLLRSSEGPSLEDL [CENPM]”, the “solubility in G1/S (log2)” value in the data set on HeLa Kyoto [1] was determined as 0.195. Further, the “solubility change mitosis (log2)” value in the data set on HeLa Kyoto [4] is -0.14.
